Earlier results as cited in patent publication EP0904128B1, “COMPOSITION AND SYSTEM FOR IONTOPHORETIC TRANSDERMAL DELIVERY OF DRUGS” (priority 1996, dated 1997).

Details: in vivo; cited from earlier work

## Nc1c2c(nc3ccccc13)CCCC2 [tacrine, 9-amino-1,2,3,4-tetrahydroacridine]
  Clearance CL: 150 L/h
